Amino acid sequences for entries named in this document (tags omitted). A change or cut given only in a name is not applied to a line headed by its entry.
UniProt P41145: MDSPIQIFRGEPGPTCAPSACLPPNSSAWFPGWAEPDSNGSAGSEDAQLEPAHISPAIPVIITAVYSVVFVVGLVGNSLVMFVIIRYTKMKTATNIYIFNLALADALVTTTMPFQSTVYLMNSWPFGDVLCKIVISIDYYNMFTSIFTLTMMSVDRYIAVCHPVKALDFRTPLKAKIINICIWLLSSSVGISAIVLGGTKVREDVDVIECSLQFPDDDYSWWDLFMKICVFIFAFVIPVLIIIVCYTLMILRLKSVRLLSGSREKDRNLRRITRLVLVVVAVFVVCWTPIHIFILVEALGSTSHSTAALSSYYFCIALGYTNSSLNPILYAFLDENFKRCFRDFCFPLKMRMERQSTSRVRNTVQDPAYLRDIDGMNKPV

In ChEMBL document CHEMBL1145271 (Bioorg Med Chem Lett, 2005):

Target: Kappa-type opioid receptor (Homo sapiens, UniProt P41145)
Test: Activation of human Opioid receptor kappa 1 expressed in chinese hamster ovary cells to enhance [35S]GTP-gamma-S, binding compared to U50,488H
Format: functional, cell-based
Method in brief: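 Agonist efficacy at human κ-opioid receptor, read as enhancement of [35S]GTPγS binding and expressed as % of the maximal response to U50,488H. Mean of at least three independent experiments, each run in duplicate.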

**Q.** `COC(=O)[C@@H]1C[C@H](OC(C)=O)C(=O)[C@H]2[C@@]1(C)CC[C@H]1C(=O)O[C@H](c3ccoc3)C[C@]21C` was tested. Which Efficacy did it give?
**A.** Its Efficacy is 99%.
